This is an account of results in ChEMBL document CHEMBL2176916, “Mimicking the intramolecular hydrogen bond: synthesis, biological evaluation, and molecular modeling of benzoxazines and quinazolines as potential antimalarial agents” (J Med Chem, 2012).

SMILES strings stand for the structures.

The data set concerns Potassium voltage-gated channel subfamily H member 2 (Rattus norvegicus). Kind of data set: Inhibition of rat ERG at 100 nM after 2 to 3 days by patch clamp assay. To be noted: 0.1 µM.

In the case of `Clc1ccc2c(Nc3ccc4c(c3)NCN(Cc3ccccc3)C4)ccnc2c1`, the “inhibition (INH)” value was “Not Active”.
